# Antibody variant affinities, Ab-14 heavy chain, assay 1

Reference: Engelhart et al. 2022, doi:10.1038/s41597-022-01779-4. File: FLAb, binding data.

Target peptide (SARS-CoV-2 spike, HR2 region): PDVDLGDISGINAS

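Phage display of a naive human antibody library on the peptide gave the parent. Variants in AAYL49 differ from the parent at up to three CDR positions; double and triple changes were sampled at random. AlphaSeq pools MATa yeast showing the antibodies with MATalpha yeast showing the peptide. Mating (16 h, 30 °C) was followed by selection of diploids and sequencing of their barcodes. Read counts were normalised to the haploid input and turned into Kd by a linear fit to BCL2-family pairs of known affinity, for each replicate. There are three technical replicates.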

Parent scFv Ab-14: VH joined to VL by a 15-residue (Gly4Ser)3 linker. Changes lie in the heavy chain CDRs alone.
VH: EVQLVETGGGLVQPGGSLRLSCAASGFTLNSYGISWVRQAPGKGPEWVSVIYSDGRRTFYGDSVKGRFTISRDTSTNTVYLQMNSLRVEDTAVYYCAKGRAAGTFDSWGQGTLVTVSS
VL: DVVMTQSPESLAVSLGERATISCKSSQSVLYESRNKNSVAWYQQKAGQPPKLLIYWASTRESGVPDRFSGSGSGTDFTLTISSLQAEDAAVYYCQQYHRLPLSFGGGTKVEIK

Changes read parent residue, position, new residue, counted from the first residue of the VH shown.
Affinities are written as log10 Kd with Kd in nM; a lower number is a better binder.
Averages over replicates are reported, and they cover detected replicates only.
An entry "ND" has no value in the source: the pair was not observed among the diploids in that replicate. This suggests poor binding but is not conclusive.
Parent in this assay: reference entry 0.65, copy in this library 4.11 (one replicate of three).
Background: pairings of library AAYL49 with three empty control strains gave a value in 15% of cases (median 4.06, 5th percentile 2.83). Values in that range, when seen in few replicates, are hard to tell from nonspecific mating. Also given: how often the same scFv was detected with the empty control strains, with their mean in brackets.

changes	log10 Kd (nM) by replicate	log10 Kd (nM), mean	signal with controls
T28F/D54W/A102N	4.11 / 2.99 / ND	3.55	1 of 9 (4.29)
S53V/D106P/S107E	4.54 / 4.31 / 3.84	4.23	6 of 9 (5.23)
D54K/G103K/S107V	3.80 / ND / ND	3.80	1 of 9 (2.98)
G33L/I34P/I51P	ND / ND / ND	ND	0 of 9
T28L/N30T/S63H	0.94 / 1.20 / 2.13	1.42	1 of 9 (2.47)
V50S/S63D/A102P	ND / ND / ND	ND	2 of 9 (2.91)
S35L/S53T/Y60E	ND / ND / ND	ND	0 of 9
S35T/G61I/A101G	ND / ND / ND	ND	1 of 9 (5.13)
I34E/D54S/S107K	ND / 3.98 / ND	3.98	1 of 9 (3.98)
Y32G/R56M/G61C	4.05 / 5.21 / ND	4.63	4 of 9 (4.14)
V50T/Y52W/A102C	ND / ND / 5.80	5.80	1 of 9 (3.97)
A102V/T104N/D106Q	3.07 / 2.45 / 3.10	2.87	0 of 9
Y52L/T58A/A102K	ND / ND / ND	ND	3 of 9 (4.29)
Y52C/G55I/F105Y	3.99 / ND / ND	3.99	4 of 9 (3.66)
I51H/F59L	5.28 / ND / 4.78	5.03	2 of 9 (3.15)
G33E/R56L/F105R	ND / ND / 4.19	4.19	0 of 9
Y32M/K65F/G99P	3.83 / 4.36 / ND	4.09	1 of 9 (5.93)
F59M/G103T/F105H	1.65 / 1.32 / 1.27	1.41	2 of 9 (3.86)
G55D/R56S/T104P	ND / ND / ND	ND	0 of 9
N30E/S35Q/G55M	ND / ND / ND	ND	0 of 9
G33E/G61L	ND / ND / ND	ND	1 of 9 (4.06)
I34V/S53W/R56H	1.53 / 1.50 / 2.64	1.89	0 of 9
T58P/A102C/T104N	ND / ND / ND	ND	0 of 9
F27Q/G33D/V50Y	5.91 / ND / ND	5.91	2 of 9 (3.37)
I34N/R57D/K65L	ND / ND / ND	ND	0 of 9
R56T/R57W/T104S	ND / ND / ND	ND	0 of 9
V50M/Y52D	ND / ND / ND	ND	0 of 9
I51E/F59G/G99D	ND / ND / ND	ND	0 of 9
S53K/D62W	ND / ND / 4.19	4.19	0 of 9
D54S/R56G	ND / ND / ND	ND	0 of 9
D54Y/F105Y/S107N	ND / ND / ND	ND	0 of 9
L29A/Y32C	5.59 / 3.93 / 5.00	4.84	4 of 9 (4.70)
F27K/F105C/D106M	ND / ND / ND	ND	2 of 9 (3.20)
L29W/S31P/F105P	3.48 / ND / 4.65	4.07	1 of 9 (3.95)
Y52Q/Y60H	ND / ND / ND	ND	3 of 9 (3.94)
G26I/D62H/A101K	ND / ND / ND	ND	2 of 9 (3.13)
S53K/Y60G/G61N	ND / ND / ND	ND	1 of 9 (3.73)
I34E/S53M/R57C	ND / 4.29 / 4.63	4.46	3 of 9 (4.34)
N30A/S53A/D106C	1.22 / 1.34 / 1.26	1.27	2 of 9 (2.96)
T28D/Y52E/R57A	4.66 / 5.36 / ND	5.01	4 of 9 (4.17)
F27T/D54Y	ND / ND / ND	ND	0 of 9
Y32E/D54W	ND / ND / ND	ND	0 of 9

Repeated from above, the 5 best binders with a signal in all replicates:

changes,log10 Kd (nM) by replicate,"log10 Kd (nM), mean",signal with controls
N30A/S53A/D106C,1.22 / 1.34 / 1.26,1.27,2 of 9 (2.96)
F59M/G103T/F105H,1.65 / 1.32 / 1.27,1.41,2 of 9 (3.86)
T28L/N30T/S63H,0.94 / 1.20 / 2.13,1.42,1 of 9 (2.47)
I34V/S53W/R56H,1.53 / 1.50 / 2.64,1.89,0 of 9
A102V/T104N/D106Q,3.07 / 2.45 / 3.10,2.87,0 of 9